# Antibody variant affinities, Ab-91 heavy chain, assay 2

Source: Engelhart et al. 2022 (doi:10.1038/s41597-022-01779-4), MIT Lincoln Laboratory and A-Alpha Bio; data file from the FLAb repository.

The target is the same throughout: PDVDLGDISGINAS, from the HR2 region of SARS-CoV-2 spike.

The variants keep the light chain, the linker and the frameworks of Ab-91 (scFv order VL, a 15-residue (Gly4Ser)3 linker, VH).
VL: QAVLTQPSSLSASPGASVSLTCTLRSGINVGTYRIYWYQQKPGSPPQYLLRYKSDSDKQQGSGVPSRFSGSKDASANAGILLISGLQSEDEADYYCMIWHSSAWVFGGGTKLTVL
VH: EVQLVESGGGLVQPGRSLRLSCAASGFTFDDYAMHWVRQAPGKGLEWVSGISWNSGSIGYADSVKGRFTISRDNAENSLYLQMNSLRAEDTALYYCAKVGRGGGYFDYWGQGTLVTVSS

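AAYL51 was designed without a model: most single CDR substitutions and a random sample of double and triple ones. AlphaSeq pools MATa yeast showing the antibodies with MATalpha yeast showing the peptide. Binding brings cells together so that they mate, and sequencing counts the barcode pairs among the diploids. The ratio of observed to expected reads was calibrated, replicate by replicate, on BCL2-family standards whose Kd was known from biolayer interferometry. The assay was run in three technical replicates.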

The parent's heavy chain CDRs are GFTFDDYAMH, GISWNSGSIGYADSVK, VGRGGGYFDY; each variant's own CDRs replace them letter for letter. The read-out is the apparent dissociation constant on a log10 scale (nM): the lower, the stronger. The mean shown is taken over the replicates in which the pair was detected. An entry "n.d." has no value in the source: the pair was not observed among the diploids in that replicate. This suggests poor binding but is not conclusive. Parent in this assay: reference entry 1.86, copy in this library 0.88.

CDR-H1,CDR-H2,CDR-H3,"log10 Kd, replicates","mean, log10 nM",empty controls
GFTADDYAMH,GISWDRGSIGYADSVK,VGRGGGYFDY,1.63 / 1.75 / 1.34,1.57,5 of 9 (5.27)
GFTPDDYAMH,GISCNSGSIGSADSVK,VGRGGGYFDY,n.d. / 4.45 / n.d.,4.45,0 of 9
YFDFDDYAMH,GILWNSGSIGYADSVK,VGRGGGYFDY,4.63 / 6.32 / n.d.,5.48,5 of 9 (4.60)
GTTFDDYAMH,GISWNSGSIGYADSVK,QGRGGGYVDY,4.07 / 5.13 / n.d.,4.60,5 of 9 (4.69)
GFTFDDYAMH,GISWNSGSIGYVDSVK,VGRTGGYIDY,n.d. / n.d. / n.d.,n.d.,2 of 9 (4.76)
GFTFDDYAFH,GISWNSGSIQYADSVK,VGRGGGYFDY,n.d. / n.d. / n.d.,n.d.,0 of 9
GGTFDDYAMH,GISTNSGSIGYADSVK,VGRGGAYFDY,n.d. / 3.60 / 5.27,4.43,3 of 9 (5.27)
GFTFTCYAMH,GISWNSKSIGYADSVK,VGRGGGYFDY,n.d. / n.d. / n.d.,n.d.,0 of 9
GFTFDDYAMH,GISWNSGSIGEADSVK,VGREGGYFDY,2.08 / 2.34 / 3.08,2.50,1 of 9 (5.16)
GFVFDDYAMH,GISWNYGSIGYADSVK,VGRGGGYEDY,n.d. / n.d. / n.d.,n.d.,1 of 9 (3.43)
GFTFDDYAMH,GISWNYGSIGYADSVI,VGRGGSYFDY,n.d. / 5.17 / n.d.,5.17,1 of 9 (2.96)
IFTFDDYAMH,GISWNSGSIGDAFSVK,VGRGGGYFDY,n.d. / n.d. / 4.11,4.11,2 of 9 (3.77)
GFTFDDYTMH,GISWNSGSIGYADFVK,VERGGGYFDY,n.d. / n.d. / n.d.,n.d.,1 of 9 (2.83)
RFTFDDYAMH,GISWGSGSIGYAESVK,VGRGGGYFDY,n.d. / n.d. / n.d.,n.d.,1 of 9 (4.09)
GFSFDDYAMH,TISWNSGSIGYADSVN,VGRGGGYFDY,n.d. / n.d. / n.d.,n.d.,0 of 9
GFTFDDYAPH,GISWPSGSIGYADSVK,VGEGGGYFDY,n.d. / n.d. / n.d.,n.d.,2 of 9 (4.76)
GFTFDDYAMH,GISWNSGSIGYADSVK,VGLYGGYFDY,1.57 / 1.64 / 1.03,1.41,0 of 9
GFTFDDYAMH,GISWNSGSIGYADSVG,VGRGGGYTDV,1.07 / 1.09 / 0.67,0.95,6 of 9 (4.98)
GFTFEKYAMH,GISWNRGSIGYADSVK,VGRGGGYFDY,3.25 / 3.86 / 4.92,4.01,5 of 9 (4.55)
GFAFDDYAMH,GISWNSGSIGYADSVK,VGRCGGYSDY,n.d. / 5.48 / 4.04,4.76,5 of 9 (4.73)
GFTFDDYAMH,GISWNSGSNGYADSVK,VGRGGGYFDY,4.00 / n.d. / n.d.,4.00,2 of 9 (3.66)
GFTFDDIAMH,GISWNEGSIGYHDSVK,VGRGGGYFDY,5.47 / n.d. / n.d.,5.47,2 of 9 (4.28)
GFTFDDYAMH,GISWNSGSDGYASSVK,VGRGGPYFDY,1.33 / 1.52 / 0.90,1.25,3 of 9 (4.65)
GFTFDDYAMH,GISWNSFKIGYADSVK,VGRGGGYLDY,n.d. / n.d. / n.d.,n.d.,0 of 9
GFTFDDYAMH,GISLNSGSIGYADSVK,VGRYGGYPDY,n.d. / n.d. / n.d.,n.d.,0 of 9
GFTFDDYAMD,GISWNSGSIGYMDSVK,VGRGYGYFDY,n.d. / n.d. / n.d.,n.d.,3 of 9 (3.80)
GFTFDDYAMH,GISWNVGSIGYADSVK,DGRGGGYVDY,n.d. / n.d. / n.d.,n.d.,1 of 9 (3.92)
GFTFDDYAMH,GISLNCGSIGYADSVK,VGRGGGLFDY,n.d. / n.d. / n.d.,n.d.,0 of 9
GVTFDDYAMH,GISWNSGSIGYACSVK,VGRGGGYFDR,n.d. / n.d. / n.d.,n.d.,0 of 9
GFTFDDYAPH,GISWNSGSIGYADSSK,VGRGGGGFDY,n.d. / n.d. / n.d.,n.d.,0 of 9
GFTFDDYAMH,GISWNSGTIGYADSRK,VGRGGGYFDY,n.d. / n.d. / n.d.,n.d.,2 of 9 (3.94)
GFTFDDYASH,GISWNSGSIGYADSGK,VGRGGGYFDE,n.d. / n.d. / n.d.,n.d.,0 of 9
MLHFDDYAMH,GISWNSGSIGYADSVK,VGRGGGYFDY,1.33 / 1.27 / 0.88,1.16,3 of 9 (3.98)
GFTFDDYAMV,GISWNSGSIGIADEVK,VGRGGGYFDY,n.d. / n.d. / n.d.,n.d.,0 of 9
GFTLDDRAMH,GISWNSGSIGYADSVK,VGRQGGYFDY,n.d. / n.d. / n.d.,n.d.,3 of 9 (2.95)
GFTFDDYAMG,GISWNSGSIGYADSVN,VGRGFGYFDY,n.d. / n.d. / n.d.,n.d.,2 of 9 (4.40)
GFTFDHYAMH,GISWNSGSIGYNDSVG,VGRGGGYFDY,n.d. / n.d. / n.d.,n.d.,0 of 9
GFTFDDSAMH,GISWNSGYIGYADSVK,VGRGGMYFDY,4.23 / 4.39 / 5.33,4.65,4 of 9 (4.65)
GFQFDDYPSH,GISWNSGSIGYADSVK,VGRGGGYFDY,n.d. / n.d. / n.d.,n.d.,2 of 9 (4.22)
GFTFDDYAMH,GIRWNSGSIGYADSVK,VGRGGGEKDY,4.91 / 5.32 / n.d.,5.11,3 of 9 (4.09)
GFTFDLYAMH,GISWNGGSIGYADSVK,VGRGGGYFDY,0.76 / 0.76 / 0.18,0.57,7 of 9 (4.61)
GFTFRDYAMH,GISWPSGSIGYADSVK,VGRGGGYNDY,4.39 / 6.10 / n.d.,5.24,4 of 9 (5.36)
GFTFDDYAMH,GISWNSGSIGYADSVK,VTRGGGQDDY,5.48 / n.d. / n.d.,5.48,2 of 9 (4.59)
GFTFQDYAMH,GISNNSGSIGPADSVK,VGRGGGYFDY,4.74 / 4.66 / 5.52,4.97,6 of 9 (5.07)
GFTFDDYARH,GISWNSGSIGYADRVK,VGRGGGYFCY,6.20 / n.d. / n.d.,6.20,2 of 9 (3.84)
GFTFDKYAMH,GISWNSGSIGYADIVK,VGRGGYYFDY,n.d. / n.d. / n.d.,n.d.,0 of 9
GFTFDDYAMH,GISWNSGSCGYADVVK,VGRGGGYFDY,2.58 / 2.68 / 2.56,2.61,4 of 9 (4.68)
GFTFDDYAMH,GIDWNSGSIGYADSVK,VGRGDPYFDY,n.d. / n.d. / n.d.,n.d.,1 of 9 (3.60)
GFTFDDYAMH,GISWNSGSIGYADSGK,VGPGGLYFDY,4.05 / 4.99 / n.d.,4.52,5 of 9 (4.07)
GFTFDDYAMH,GGSWNMGSIGYADSVK,VGRGGGYPDY,n.d. / n.d. / 3.65,3.65,1 of 9 (2.94)
GFTVDDYAMH,GISWNSGSIGYADSVK,VGAGGGYFDI,1.77 / 1.92 / 1.26,1.65,2 of 9 (4.36)

Again, the first 6 entries without any signal:

CDR-H1,CDR-H2,CDR-H3,"log10 Kd, replicates","mean, log10 nM",empty controls
GFTFDDYAMH,GISWNSGSIGYVDSVK,VGRTGGYIDY,n.d. / n.d. / n.d.,n.d.,2 of 9 (4.76)
GFTFDDYAFH,GISWNSGSIQYADSVK,VGRGGGYFDY,n.d. / n.d. / n.d.,n.d.,0 of 9
GFTFTCYAMH,GISWNSKSIGYADSVK,VGRGGGYFDY,n.d. / n.d. / n.d.,n.d.,0 of 9
GFVFDDYAMH,GISWNYGSIGYADSVK,VGRGGGYEDY,n.d. / n.d. / n.d.,n.d.,1 of 9 (3.43)
GFTFDDYTMH,GISWNSGSIGYADFVK,VERGGGYFDY,n.d. / n.d. / n.d.,n.d.,1 of 9 (2.83)
RFTFDDYAMH,GISWGSGSIGYAESVK,VGRGGGYFDY,n.d. / n.d. / n.d.,n.d.,1 of 9 (4.09)

Nonspecific signal, from three strains lacking the peptide, appeared in 21% of pairings of library AAYL51, centred on 4.54 (5% of these signals below 3.26); values are not corrected for it. For each scFv, signals with the empty controls are counted beside the result, with their mean in brackets.